We go through 1 substance from PMC2919811 (Analytical biochemistry, 2010).

Chains of the proteins cited; added tags and fusions are not shown. Lines headed by an entry give the natural chain unless they say otherwise; changes in a name come on top.
UniProt O94956: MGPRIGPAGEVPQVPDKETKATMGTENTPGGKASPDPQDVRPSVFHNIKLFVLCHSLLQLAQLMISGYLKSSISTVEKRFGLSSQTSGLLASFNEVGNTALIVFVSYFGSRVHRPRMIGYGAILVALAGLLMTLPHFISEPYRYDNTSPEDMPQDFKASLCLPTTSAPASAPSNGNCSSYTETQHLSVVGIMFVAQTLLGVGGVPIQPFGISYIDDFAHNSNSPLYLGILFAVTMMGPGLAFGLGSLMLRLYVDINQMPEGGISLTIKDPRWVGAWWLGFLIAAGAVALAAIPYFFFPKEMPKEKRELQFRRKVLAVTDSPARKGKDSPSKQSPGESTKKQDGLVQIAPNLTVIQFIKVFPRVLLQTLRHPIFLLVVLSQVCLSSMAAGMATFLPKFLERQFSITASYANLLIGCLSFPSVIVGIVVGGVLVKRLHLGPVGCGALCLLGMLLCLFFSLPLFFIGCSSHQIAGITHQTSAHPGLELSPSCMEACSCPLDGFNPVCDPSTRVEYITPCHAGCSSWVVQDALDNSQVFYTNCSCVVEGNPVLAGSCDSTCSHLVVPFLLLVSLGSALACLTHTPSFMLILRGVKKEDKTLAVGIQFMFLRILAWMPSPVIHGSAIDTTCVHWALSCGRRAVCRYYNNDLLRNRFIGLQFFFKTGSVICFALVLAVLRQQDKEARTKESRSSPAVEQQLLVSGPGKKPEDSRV
UniProt Q9Y6L6: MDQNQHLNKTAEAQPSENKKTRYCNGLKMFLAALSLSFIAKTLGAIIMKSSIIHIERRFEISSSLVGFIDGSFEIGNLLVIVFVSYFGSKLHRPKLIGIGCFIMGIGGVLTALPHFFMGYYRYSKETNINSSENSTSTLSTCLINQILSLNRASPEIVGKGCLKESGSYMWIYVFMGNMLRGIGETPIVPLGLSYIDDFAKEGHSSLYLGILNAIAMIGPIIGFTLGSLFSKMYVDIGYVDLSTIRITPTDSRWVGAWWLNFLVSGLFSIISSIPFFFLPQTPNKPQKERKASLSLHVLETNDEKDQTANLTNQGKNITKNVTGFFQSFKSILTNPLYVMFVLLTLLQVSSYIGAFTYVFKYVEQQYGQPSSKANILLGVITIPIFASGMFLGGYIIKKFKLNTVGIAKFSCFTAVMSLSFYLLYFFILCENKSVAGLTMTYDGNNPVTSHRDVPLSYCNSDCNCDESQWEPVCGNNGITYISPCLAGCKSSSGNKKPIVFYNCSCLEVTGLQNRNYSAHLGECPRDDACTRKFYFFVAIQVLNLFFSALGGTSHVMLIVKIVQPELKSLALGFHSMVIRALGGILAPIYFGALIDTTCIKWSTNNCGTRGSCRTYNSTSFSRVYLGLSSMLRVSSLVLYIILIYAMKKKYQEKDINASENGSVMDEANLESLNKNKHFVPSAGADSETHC
UniProt Q9NPD5: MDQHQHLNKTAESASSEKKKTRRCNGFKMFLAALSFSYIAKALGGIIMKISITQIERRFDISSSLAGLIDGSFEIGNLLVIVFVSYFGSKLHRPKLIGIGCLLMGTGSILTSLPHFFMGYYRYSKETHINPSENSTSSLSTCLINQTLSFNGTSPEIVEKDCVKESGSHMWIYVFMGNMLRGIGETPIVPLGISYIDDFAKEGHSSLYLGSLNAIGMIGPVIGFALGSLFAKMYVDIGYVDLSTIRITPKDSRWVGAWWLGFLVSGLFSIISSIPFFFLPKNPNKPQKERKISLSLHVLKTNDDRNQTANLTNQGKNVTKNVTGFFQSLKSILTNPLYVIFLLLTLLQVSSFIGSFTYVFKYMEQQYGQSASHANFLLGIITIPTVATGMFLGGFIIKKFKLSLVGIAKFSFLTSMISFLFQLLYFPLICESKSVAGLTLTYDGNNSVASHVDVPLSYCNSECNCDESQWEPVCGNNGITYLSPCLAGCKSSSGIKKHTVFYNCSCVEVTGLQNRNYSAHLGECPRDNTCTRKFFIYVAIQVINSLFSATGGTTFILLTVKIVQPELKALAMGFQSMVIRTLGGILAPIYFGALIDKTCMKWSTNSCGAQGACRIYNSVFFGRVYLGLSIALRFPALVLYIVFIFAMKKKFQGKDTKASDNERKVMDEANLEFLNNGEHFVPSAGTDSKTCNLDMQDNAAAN

The target of series [1] is OATP2B1 (Homo sapiens, UniProt O94956). Briefly: Substrate uptake in CHO cells stably expressing OATP2B1. The format is cell-based.
The target in series [2] is OATP1B1 (Homo sapiens, UniProt Q9Y6L6).
Series [3] addresses OATP1B3 (Homo sapiens, UniProt Q9NPD5).

On to dehydroepiandrosterone sulfate, for which the “cellular accumulation relative to control, CHOOATP2B1” value in series [1] turned out to be 1.3 fold. For the same substance, in series [2], the “cellular accumulation relative to control, CHOOATP1B1” value was 13.2 fold. Also, the “cellular accumulation relative to control, CHOOATP1B3” value in series [3] was 2.4 fold.
